# Measured affinities in a library of Ab-14 light chain variants

Reference: Engelhart et al. 2022, doi:10.1038/s41597-022-01779-4. File: FLAb, binding data.

Binding partner: SARS-CoV-2 spike HR2 peptide, sequence PDVDLGDISGINAS.

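AAYL50 was designed without a model: most single CDR substitutions and a random sample of double and triple ones. The scFvs were displayed on barcoded MATa yeast, the peptide on MATalpha yeast. The frequency of each diploid, read from paired DNA barcodes, reflects how well the two displayed proteins bind. A regression on co-assayed BCL2-family reference pairs converts the normalised counts of each replicate to an apparent Kd. The assay was run in three technical replicates.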

Parent: Ab-14, a human scFv built as VH, the linker GGGGSGGGGSGGGGS, VL. Only the CDRs of the light chain vary.
VH: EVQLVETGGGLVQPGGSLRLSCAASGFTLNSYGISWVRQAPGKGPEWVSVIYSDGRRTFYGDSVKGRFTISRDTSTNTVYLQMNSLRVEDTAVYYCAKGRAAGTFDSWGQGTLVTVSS
VL: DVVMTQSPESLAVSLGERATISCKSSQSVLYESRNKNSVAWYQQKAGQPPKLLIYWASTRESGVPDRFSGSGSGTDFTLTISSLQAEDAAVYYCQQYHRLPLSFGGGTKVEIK

Each variant is given by its three light chain CDRs, as the data file delimits them; those of the parent are KSSQSVLYESRNKNSVA, WASTRES, QQYHRLPLS.
Every variant below is changed at S38 of the VL (sequential numbering).
Each Kd is an estimate from the mating assay, the geometric mean of the replicates in which the pair was seen; lower is stronger.
"no signal" means that the variant was in the library but no mating with the target was seen in any replicate; the authors take this as a sign of poor binding, and no number exists.

For KSSQSVLYTSRNKNFVA | WASTDES | QQYHRLPLS, the assay gave no signal (0 of 3 replicates). Variant KSSQSVLYESRNKNNVA | WLSTRES | QQIHRLPLS showed 120 nM (3 of 3 replicates). For KSSQSVLYESRNYNDVA | WASTRES | QQYHRLPLI, the assay gave 550 nM (3 of 3 replicates). With ILSQSVLYESRNKNGVA | WASTRES | QQYHRLPLS the result was 5.2 nM (3 of 3 replicates). With KSSQSTLYESRNKNQVA | WASTRES | PQYHRLPLS the result was no signal (0 of 3 replicates). Variant CSSQSVLYESRNKNGVA | WASQRES | QQYHRLPLS gave 350 nM (3 of 3 replicates). Variant KSSQSVLYESRNKNVVA | WASTRES | QQTARLPLS gave no signal (0 of 3 replicates).

For KSSQSVLYESRNKNFVP | WASTRES | QQYHRGPLS, the assay gave no signal (0 of 3 replicates). For KSSQSVLYESCNKNEVA | WASTRES | QTYHRLPLS, the assay gave no signal (0 of 3 replicates). Variant KSSQSVLYESRNKNLVA | WWSTLES | QQYHRLPLS gave no signal (0 of 3 replicates). For KSQQSVLYESRNKNKRA | WASTRES | QQYHRLPLS, the assay gave 860 nM (1 of 3 replicates). Variant KSSQSVLYESRNKNMVA | WASTRTS | QQYHCLPLS showed no signal (0 of 3 replicates). For KSSQSVGYESRNKNNVA | WASTRES | QQYHYLPLS, the assay gave 7.0 nM (3 of 3 replicates). For KSSQSVEYESRNKRYVA | WASTRES | QQYHRLPLS, the assay gave no signal (0 of 3 replicates).

Variant KSSQSVLYESRNKNYVA | WASTRES | EQFHRLPLS gave no signal (0 of 3 replicates). Variant KSSQSVLYESRNYNMLA | WASTRES | QQYHRLPLS showed 17 µM (2 of 3 replicates). Variant KSSQSVLYESRNMNMVA | WASTRES | QFYHRLPLS showed 12 µM (3 of 3 replicates). For KSSQSVLYQSRDKNMVA | WASTRES | QQYHRLPLS, the assay gave 1.8 µM (3 of 3 replicates). With KSSQSVLYESRNKNPKA | WASTRES | QQYHRLPIS the result was no signal (0 of 3 replicates). Variant KSSQSVLYESRNKNRVV | CASTRES | QQYHRLPLS gave 250 µM (2 of 3 replicates). With KSSQSVLYESRNKNPVA | WASTWES | QQYHRLPLS the result was 5.2 µM (1 of 3 replicates).

For KSSQSVVYESRNKNVVA | WASTRES | QQYKRLPLS, the assay gave no signal (0 of 3 replicates). With KSSQSVLYESRNKNCVY | WASTRES | QQYHRLPLS the result was 8.4 µM (1 of 3 replicates). For KSSQSVLYESRNFNHVA | WLSTRES | QQYHRLPLS, the assay gave 38 µM (1 of 3 replicates). With KSSQDVLYESRNKNHVA | WASTRHS | QQYHRLPLS the result was 32 nM (3 of 3 replicates). For KSSQSVLYESRTKNEVA | WAFTRES | QQYHRLPLS, the assay gave 5.5 µM (1 of 3 replicates). For KISQSVLYESRNKNAVA | WASTRES | QQYHRLPLS, the assay gave 710 pM (3 of 3 replicates). Variant KISQSTLYESRNKNFVA | WASTRES | QQYHRLPLS gave 1.7 nM (3 of 3 replicates).

For KSSQSVLYESRNKNRVA | WASTRES | QHYHRLPCS, the assay gave 1.6 µM (3 of 3 replicates). Variant KSSQSVLYESRNKNAVA | WACTRES | QQYHRTPLS gave 41 µM (2 of 3 replicates). With KSSQSVLYESRNKNWVA | WASTRES | QQYHRLPLA the result was 28 nM (3 of 3 replicates). With KSSQSVLYETRNKNDVA | WASTRES | QQYHRLPLC the result was no signal (0 of 3 replicates). For KSSQSQLYRSRNKNFVA | WASTRES | QQYHRLPLS, the assay gave 1.8 µM (1 of 3 replicates). Variant KSSQSVLYESRNKNFVA | WASTYES | QQYHRSPLS gave no signal (0 of 3 replicates). Variant KSSQSVLYNSRNKNHGA | WASTRES | QQYHRLPLS gave 28 µM (2 of 3 replicates).

The 4 strongest on average among those seen in every replicate, once more:

CDR-L1	CDR-L2	CDR-L3	apparent Kd	detected
KISQSVLYESRNKNAVA	WASTRES	QQYHRLPLS	710 pM	3/3
KISQSTLYESRNKNFVA	WASTRES	QQYHRLPLS	1.7 nM	3/3
ILSQSVLYESRNKNGVA	WASTRES	QQYHRLPLS	5.2 nM	3/3
KSSQSVGYESRNKNNVA	WASTRES	QQYHYLPLS	7.0 nM	3/3

Background: pairings of library AAYL50 with three empty control strains gave a value in 18% of cases (median 15 µM, 5th percentile 970 nM). Values in that range, when seen in few replicates, are hard to tell from nonspecific mating.